From patent US20260042764A1, “COMPOSITIONS AND METHODS FOR INHIBITION OF KRAS” (TheRas, Inc., priority 2022, published 2026)
pIC50: −log10 of the molar value.

Chains of the proteins cited; added tags and fusions are not shown. Residues count along the entry.
UniProt P01116, 1-169 isoform 2 G12D limits assumed: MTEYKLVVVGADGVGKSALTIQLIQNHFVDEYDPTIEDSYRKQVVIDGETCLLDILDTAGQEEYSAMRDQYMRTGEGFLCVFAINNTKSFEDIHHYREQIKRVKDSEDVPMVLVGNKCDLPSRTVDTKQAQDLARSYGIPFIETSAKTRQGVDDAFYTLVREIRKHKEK
UniProt P01116, 1-169 isoform 2 G12V limits assumed: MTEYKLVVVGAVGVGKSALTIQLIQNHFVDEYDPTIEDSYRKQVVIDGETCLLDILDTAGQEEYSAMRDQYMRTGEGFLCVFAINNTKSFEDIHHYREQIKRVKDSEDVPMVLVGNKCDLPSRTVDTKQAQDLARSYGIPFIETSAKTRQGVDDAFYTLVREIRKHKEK

Assays:
[1] = biological target: Avi-KRAS G12D (1-169) GppNHp/RAF1 RBD-3xFLAG (52-151) (Homo sapiens, UniProt P01116, G12D); assay: Raf1-KRAS G12D-GppNHP disruption HTRF assay (Biological Example 1); conditions: read-out: Raf1-GppNHp-KRAS G12D disruption; KRAS G12D, GppNHp-loaded; class symbols
[2] = biological target: Avi-KRAS G12V (1-169) GppNHp/RAF1 RBD-3xFLAG (52-151) (Homo sapiens, UniProt P01116, G12V); assay: Raf1-KRAS G12V-GppNHP disruption HTRF assay (Biological Example 1); conditions: read-out: Raf1-GppNHp-KRAS G12V disruption; KRAS G12V, GppNHp-loaded; class symbols
[3] = test system: AsPC-1 cells (KRAS G12D); assay: Cell-based pERK HTRF assay in AsPC-1 cells (Biological Example 5); conditions: read-out: AsPC-1 pERK HTRF IC50; AsPC-1 (KRAS G12D) cells
Method: (§1) Biological Example 5: Cell-based PERK HTRF assay in AsPC-1, SW1900, HPAC, Capan-2, RKN, H358, HCT116, KP-2, H1573, A549, MKN1, and HT1080 cells
(§2) The inhibition of ERK phosphorylation, as measured using the HTRF Advanced Phospho-ERK 1/2 (Thr202/Tyr204) Detection Assay kit (Perkin Elmer), was used to determine the effectiveness of test compounds in disrupting KRAS-driven protein/effector signaling in cells.
(§3) On day 1, cells were seeded into 96-well plates at 2.5×10^4 cells/well in 100 μL of complete growth media supplemented with 10% fetal bovine serum (FBS) and incubated at 37° C., in the presence of 5% CO2.
(§4) On day 2, cells were treated with compounds diluted in DMSO at 0.25% final DMSO concentration. Compounds were dosed in a 9-point concentration curve with three-fold dilution between concentrations. Cells were incubated in the presence of compound for two hours at 37° C. […]
(§5) Following this incubation period, plates were centrifuged at 500×g for one minute and analyzed on a CLARIOstar plate reader. Data was imported into Microsoft Excel and the signal from the 665 nm channel was divided by the signal from the 620 nm channel. % pERK was calculated as: […]
(§6) Data was imported to the Prism software package (Graphpad) and EC50 values were calculated using the log (inhibitor) vs, response—variable slopc (Four parameters) model.

[4] = test system: SW1900 cells (KRAS G12D); assay: Cell-based pERK HTRF assay in SW1900 cells (Biological Example 5); conditions: read-out: SW1990 pERK HTRF IC50; SW1990 cells (text: SW1900, KRAS G12D)
Method: as §1, §2, §3, §4, §5, §6

[5] = test system: Capan-2 cells (KRAS G12V); assay: Cell-based pERK HTRF assay in Capan-2 cells (Biological Example 5); conditions: read-out: Capan-2 pERK HTRF IC50; Capan-2 (KRAS G12V) cells
Method: as §1, §2, §3, §4, §5, §6

[6] = test system: RKN cells (KRAS G12V); assay: Cell-based pERK HTRF assay in RKN cells (Biological Example 5); conditions: read-out: RKN pERK HTRF IC50
Method: as §1, §2, §3, §4, §5, §6

[7] = test system: MKN1 cells (KRAS amplification); assay: Cell-based pERK HTRF assay in MKN1 cells (Biological Example 5); conditions: read-out: MKN pERK HTRF IC50
Method: as §1, §2, §3, §4, §5, §6

[8] = test system: AsPC-1 cells (KRAS G12D); assay: 3D Cell viability assay in AsPC-1 cells (Biological Example 6); conditions: read-out: AsPC-1 3D cell viability IC50; AsPC-1 (KRAS G12D) spheroids, 72 hours
Method: (§7) Biological Example 6: 3D Cell viability assay in AsPC-1, SW1900, HPAC, Capan-2, RKN, H358, HCT116, KP-2, H1573, A549, MKN1, and HT1080 cells
(§8) The inhibition of cellular viability as a result of test compound treatment in a spheroid assay was measured using the CellTiter-Glow 3D Cell Viability Assay (Promega).
(§9) On Day 1, 1000 cells per well were seeded in 150 μL of complete growth media supplemented with 10% fetal bovine serum (FBS) and incubated at 37° C., in the presence of 5% CO2 in 96-well ultra-low attachment microplates (Corning) for 48 hours undisturbed to allow spheroids to form.
(§10) Following spheroid formation, cells were treated with compounds diluted in DMSO at 0.25% final DMSO concentration. Compounds were dosed in a 9-point concentration curve with three-fold dilution between concentrations. […]
(§11) Following this incubation period, the kit-provided CTG reagent was allowed to equilibrate for 30 minutes at room temperature, 150 μL of equilibrated CTG reagent was added to each well, and the plate was sealed before shaking at 250 rpm for 10 minutes at room temperature to lyse the cells, 150 μL of lysate per well was transferred to a 96-well plate and luminescence was read on a CLARIOstar plate reader.
(§12) Data was imported into the Prism software package (Graphpad) and EC50 values were calculated using the log (inhibitor) vs, response—variable slope (Four parameters) model.

[9] = test system: SW1900 cells (KRAS G12D); assay: 3D Cell viability assay in SW1900 cells (Biological Example 6); conditions: read-out: SW1990 3D cell viability IC50; SW1990 (text: SW1900, KRAS G12D) spheroids, 72 hours
Method: as §7, §8, §9, §10, §11, §12

[10] = test system: HPAC cells (KRAS G12D); assay: 3D Cell viability assay in HPAC cells (Biological Example 6); conditions: read-out: HPAC 3D cell viability IC50; HPAC (KRAS G12D) spheroids, 72 hours
Method: as §7, §8, §9, §10, §11, §12

[11] = test system: Capan-2 cells (KRAS G12V); assay: 3D Cell viability assay in Capan-2 cells (Biological Example 6); conditions: read-out: Capan-2 3D cell viability IC50; Capan-2 (KRAS G12V) spheroids, 72 hours
Method: as §7, §8, §9, §10, §11, §12

[12] = test system: H358 cells (KRAS G12C); assay: 3D Cell viability assay in H358 cells (Biological Example 6); conditions: read-out: H358 3D cell viability IC50; H358 (KRAS G12C) spheroids, 72 hours
Method: as §7, §8, §9, §10, §11, §12

[13] = test system: MKN1 cells (KRAS amplification); assay: 3D Cell viability assay in MKN1 cells (Biological Example 6); conditions: read-out: MKN 3D cell viability IC50; MKN (MKN1, KRAS amplification) spheroids, 72 hours
Method: as §7, §8, §9, §10, §11, §12

pIC50 [1]: > 7.00
pIC50 [2]: > 7.00
pIC50 [3]: > 7.00
pIC50 [4]: > 7.00
pIC50 [5]: > 7.00
pIC50 [6]: > 7.00
pIC50 [7]: > 7.00
pIC50 [8]: > 7.00
pIC50 [9]: > 7.00
pIC50 [12]: > 7.00
pIC50 [13]: > 7.00
SMILES: CCN(c1nc(OC[C@@]23CCCN2C[C@H](F)C3)nc2c(F)c(-c3ccc(F)c4sc(N)c(C#N)c34)c(C(F)(F)F)cc12)[C@H]1CCN(C(=O)OC2COC2)C1
pIC50 [10]: 6.00 to 7.00
pIC50 [11]: > 7.00
